# Reference: ChEMBL document CHEMBL4613246, “Antimycobacterial Rufomycin Analogues from Streptomyces atratus Strain MJM3502” (J Nat Prod, 2020)
# Assays:
# [1] = tested on: Mycobacteroides abscessus; assay: Antimycobacterial activity against Mycobacterium abscessus ATCC 19977 assessed as reduction in microbial growth after 7 days by alamar blue assay; assay type: functional; settings: ATCC 19977, 168 h
# Vero = assay: cells; settings: Chlorocebus sabaeus
SMILES,MIC [1],IC50 (Vero)
C/C=C/C[C@@H]1NC(=O)[C@H](CC(C)C)N2C(=O)[C@H](C[C@](C)(O)[C@H]2O)N(C)C(=O)[C@H](C)NC(=O)[C@H](Cc2ccc(O)c([N+](=O)[O-])c2)NC(=O)[C@H](CC(C)C)N(C)C(=O)[C@H](Cc2cn(C(C)(C)[C@H]3CO3)c3ccccc23)NC1=O,0.58 µM,> 10 µM
C/C=C/C[C@@H]1NC(=O)[C@H](CC(C)C)N2C(=O)[C@H](C[C@@H](C)[C@H]2O)N(C)C(=O)[C@H](C)NC(=O)[C@H](Cc2ccc(O)c([N+](=O)[O-])c2)NC(=O)[C@H](CC(C)C)N(C)C(=O)[C@H](Cc2cn(C(C)(C)[C@H](O)CO)c3ccccc23)NC1=O,0.54 µM,> 100 µM
